The values that follow are results of earlier work, collected in patent US10925981B2, “Hexa-lactoside-triazanonane triacetic acid (NOTA) derivative, method for radiolabeling hexa-lactoside positron emission tomography (PET) imaging agent for liver receptor with Ga-68, and hexa-lactoside PET imaging agent for liver receptor” (Institute of Nuclear Energy Research, Atomic Energy …, priority 2018, dated 2021).

Bounds are passed on as bounds.

Consider “Tc-99m diethylenetriamine pentaacetic acid-galactosamine-albumin [Tc-99m DTPA-GSA]”, for which the “time the labeled product remains stable in serum” value was ≥ 4 h.
